For 1 molecule, IC50 results are on record in ChEMBL document CHEMBL6182948 (J Med Chem, 2025).

In one assay the target is T1, Cytochrome P450 1A1 (Homo sapiens, UniProt P04798).
T1 sequence (P04798 whole entry): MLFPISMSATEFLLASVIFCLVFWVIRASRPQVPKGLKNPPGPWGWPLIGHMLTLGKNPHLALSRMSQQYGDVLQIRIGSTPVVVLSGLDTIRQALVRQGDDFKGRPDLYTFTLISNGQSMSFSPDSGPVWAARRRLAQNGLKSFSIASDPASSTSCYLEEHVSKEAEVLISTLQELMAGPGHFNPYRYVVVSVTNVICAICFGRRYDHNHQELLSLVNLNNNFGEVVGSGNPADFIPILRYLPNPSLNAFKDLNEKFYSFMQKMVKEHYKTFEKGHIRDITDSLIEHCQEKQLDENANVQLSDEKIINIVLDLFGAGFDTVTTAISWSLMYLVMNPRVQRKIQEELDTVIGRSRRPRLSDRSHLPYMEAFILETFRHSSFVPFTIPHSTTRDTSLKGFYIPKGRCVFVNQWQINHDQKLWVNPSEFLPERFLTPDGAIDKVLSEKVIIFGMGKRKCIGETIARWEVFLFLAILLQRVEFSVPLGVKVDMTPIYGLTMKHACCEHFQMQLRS
Briefly: Inhibition of human recombinant CYP1A1 using 7-ethoxyresorufin as substrate incubated under dark condition for 15 mins in presence of NADPH by EROD fluorescence assay. It is filed as ADME.

The target in a further assay is T2, Cytochrome P450 1B1 (Homo sapiens, UniProt Q16678).
T2 sequence (Q16678 whole entry): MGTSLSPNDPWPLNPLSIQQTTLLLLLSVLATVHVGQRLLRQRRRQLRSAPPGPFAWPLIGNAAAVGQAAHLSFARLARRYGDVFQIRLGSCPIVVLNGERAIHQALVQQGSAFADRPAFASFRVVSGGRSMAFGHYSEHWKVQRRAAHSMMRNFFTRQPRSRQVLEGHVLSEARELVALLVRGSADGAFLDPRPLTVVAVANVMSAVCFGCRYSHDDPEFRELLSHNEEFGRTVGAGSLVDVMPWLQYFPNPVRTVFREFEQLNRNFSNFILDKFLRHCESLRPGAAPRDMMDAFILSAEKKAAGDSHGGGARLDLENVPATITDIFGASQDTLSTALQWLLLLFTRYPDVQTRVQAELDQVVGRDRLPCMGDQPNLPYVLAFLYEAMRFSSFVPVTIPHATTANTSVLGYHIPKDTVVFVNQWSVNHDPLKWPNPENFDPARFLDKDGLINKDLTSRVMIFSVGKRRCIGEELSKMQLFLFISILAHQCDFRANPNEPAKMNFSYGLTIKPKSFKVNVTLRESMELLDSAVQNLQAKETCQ
Briefly: Inhibition of human recombinant CYP1B1 using 7-ethoxyresorufin as substrate incubated under dark condition for 30 mins in presence of NADPH by EROD fluorescence assay. The format is ADME.

In general, IC50 refers to the concentration at which inhibition is half-maximal. Take `COc1cc(/C=C/c2ccc(OC)cc2OC)cc(OC)c1`: the IC50 on Cytochrome P450 1A1 was 379 nM; on Cytochrome P450 1B1, 5.13 nM.
